Experimental data as given in EP0909816A1.

Target: anti-Fas monoclonal antibody HFE7A (produced by mouse-mouse hybridoma HFE7A, FERM BP-5828)
Test: peptide (200 µg) preincubated with 0.25 µg HFE7A, binding to WR19L12a cells read by flow cytometry; D355-364 sample taken as 100% fluorescence

| Substance | inhibition of binding between HFE7A and WR19L12a cells |
| --- | --- |
| P110 (from UniProt P25445 110-119) (peptide) | 60% |
| P100 (from UniProt P25445 100-109) (peptide) | 50% |
